Earlier results on one molecule are cited in patent US20090221581A1, “Methods of treating pain” (priority 2005, published 2009).

Amino acid sequences for entries named in this document (tags omitted).
UniProt P50750, whole entry, species assumed: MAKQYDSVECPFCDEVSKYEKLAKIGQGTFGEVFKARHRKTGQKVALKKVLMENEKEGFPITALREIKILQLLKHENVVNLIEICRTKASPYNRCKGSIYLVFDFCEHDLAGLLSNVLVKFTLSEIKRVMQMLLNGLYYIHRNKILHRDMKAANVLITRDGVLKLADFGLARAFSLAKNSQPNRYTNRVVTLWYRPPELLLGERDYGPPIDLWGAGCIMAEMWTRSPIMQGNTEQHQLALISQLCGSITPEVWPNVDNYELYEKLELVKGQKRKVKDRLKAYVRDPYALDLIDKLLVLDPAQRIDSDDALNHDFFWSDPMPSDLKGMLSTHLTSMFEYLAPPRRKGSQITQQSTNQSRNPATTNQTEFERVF

This data set addresses CDK9 (Homo sapiens, UniProt P50750). As to conditions: versus 5,6-dichloro-1-beta-D-ribofuranosylbenzimidazole (DRB); Chao and Price, 2001; cited from earlier work.

Consider `CN1CC[C@H](c2c(O)cc(O)c3c(=O)cc(-c4ccccc4Cl)oc23)[C@H](O)C1` [Flavopiridol], for which the “affinity for target compared with DRB” value is on record as “higher affinity”.
